Only some compounds are listed: those with a hit (about 1.5% of all), similar ones and a draw of the others.
miR122 inh = inhibitors of miR-122 in Huh7 cells | Huh7 miR-122 Renilla luciferase sensor, 48 h; neutral wells = 0, positive control = 100 | activation (reporter increase), % at 12.5 µM | actives 0.3% (n = 340,000);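 active = mean replicate activation score at least 90 and every replicate individually at or above 90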;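 note: higher luciferase means less miR-122 activity so hits act as miR-122 inhibitors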
PGC1a acetyl inh = PGC1a acetylation modulation, inhibitor mode; actives 0.17% (n = 350,000); inhibition, % at 15.6 µM; U2OS PGC1a acetylation, AlphaScreen anti-acetyl-lysine; with virally co-expressed GCN5 acetyltransferase;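 active = every replicate shows inhibition of at least 40%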;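 note: 0% = neutral control wells and 100% = positive control wells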
FN deposit inh = fibronectin deposition inhibition | AH1F fibroblasts, Alexa488-fibronectin deposition fluorescence, overnight | inhibition, % at 12.6 µM | actives 0.086% (n = 350,000) | AID 743247;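 active = mean inhibition across replicates of 30% or more, regardless of how many single replicates reach that level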;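 note: positive control wells lacked labelled fibronectin entirely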
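Material: AH1F fibroblast monolayer depositing Alexa488-labelled fibronectin into matrix / Amount: 10000 AH1F cells per well / Signal: fluorescence 485/525 nm / Medium: DMEM, 2% serum / Compound: single dose, pinned / Incubation: 1 h cell adhesion before compound, then overnight fibronectin incubation / Reagent: Alexa488-FN, 24 nM final / Read-out: inhibition of fibronectin deposition signal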
Env fusion inh = inhibitors of HIV Env-mediated cell fusion | HeLa-JRFL Env/CEM21 cell fusion, luciferase | inhibition, % at 12.3 µM | actives 1.1% (n = 360,000);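 active = mean replicate inhibition score of at least 50 and every replicate individually at or above 50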;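 note: 0% = plate neutral controls and 100% = maraviroc near 300 nM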
Yeast UUG start = alters start codon recognition fidelity in yeast. S. cerevisiae UUG-firefly luciferase reporter, luminescence/redox ratio. activity score, % at 18.7 µM. 0.13% of 350,000 active. AID 602363;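 active = replicate mean at a twofold rise or more, about +100% in these data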;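 also: firefly luciferase made from a UUG start codon reports start codon fidelity; reporter light over untreated wells divided by growth signal over untreated wells; some hits fall short of that in this replicate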
Cneo AK release = Cryptococcus neoformans lysis via adenylate kinase release; AID 651654; lysis activity, % at 15 µM; C. neoformans lysis, adenylate kinase release luminescence, 4 h; normalised: neutral wells 0, clomiphene wells 100; actives 0.2% (n = 360,000);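 active = mean lysis activity across replicates of at least 80%, whatever share of replicates individually reach that level; inactive = mean lysis activity below 80%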
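Signal: Adenylate kinase release luminescence | Assay system: Log-phase Cryptococcus neoformans yeast cells | Input: Cells at 5 × 10^6 per mL | Buffer or medium: Fresh YPD growth medium | Compound: Single dose | Schedule: Static 4 h at 37 °C with compound, 1 h detection | Controls: Clomiphene | Read-out: Luminescence rise reflecting yeast cell lysis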
Starred values were filed as active, the others as inactive; nt = not tested or not shown; ! = a repeat was not active; [ ] = remark or other dose.

Letter code: A = miR122 inh; B = PGC1a acetyl inh; C = FN deposit inh; D = Env fusion inh; E = Yeast UUG start; F = Cneo AK release
C[C@@H]1CN([C@@H](C)CO)S(=O)(=O)c2ccc(C#C[C@@H](C)O)cc2O[C@@H]1CN(C)C(=O)C1CCCCC1
  A: 4.3[16.7 µM]	B: 5.8	C: nt	D: -6.6[16.7 µM]	E: 17.8	F: 105.2*
C[C@H]1CN([C@@H](C)CO)S(=O)(=O)c2ccc(Br)cc2O[C@@H]1CN(C)C(=O)CCN1CCCCC1
  A: -4.5	B: 2.9	C: -5.0	D: -1.6	E: 6.5	F: 80.5*!
C[C@H](O)C#Cc1ccc2c(c1)O[C@H](CN(C)C(=O)C1CCCCC1)[C@@H](C)CN([C@@H](C)CO)S2(=O)=O
  A: 16.0[16.7 µM]	B: -0.5	C: nt	D: -4.9[16.7 µM]	E: -3.1	F: 0.3
C[C@H](CO)N1C[C@H](C)[C@H](CN(C)C(=O)C2CCCCC2)Oc2cc(Br)ccc2S1(=O)=O
  A: -7.3[16.7 µM]	B: -2.7	C: -23.9	D: 55.2*[16.7 µM]	E: 1.0	F: nt
CC(C)C#Cc1ccc2c(c1)O[C@@H](CN(C)C(=O)C1CCCCC1)[C@H](C)CN([C@H](C)CO)S2(=O)=O
  A: -5.3[16.7 µM]	B: -0.9	C: nt	D: 57.8*[16.7 µM]	E: 8.1	F: nt
CCC(=O)N(C)C[C@@H]1Oc2cc(Br)ccc2S(=O)(=O)N([C@H](C)CO)C[C@@H]1C
  A: 2.2[16.7 µM]	B: -10.9	C: -8.3	D: -9.6[16.7 µM]	E: -1.9	F: 2.5
COC(=O)c1cc(N=Cc2c(O)c3ccccc3oc2=O)cc(C(=O)OC)c1
  A: -6.2	B: 26.0	C: nt	D: nt	E: -13.4	F: 2.9
CCCn1c(=O)c(C(=O)Nc2ncccc2C)c(O)c2ccccc21
  A: 11.7	B: -8.7	C: nt	D: 15.7	E: nt	F: nt
COc1ccc(S(=O)(=O)Nc2ccc(-c3ccc4nnc(C)n4n3)cc2)c(OC)c1
  A: 92.4*	B: 2.3	C: -3.4	D: nt	E: -8.5	F: -0.8
COc1ccc(OC)c(S(=O)(=O)Nc2ccc(-c3ccc4nnc(C)n4n3)cc2)c1
  A: nt	B: nt	C: -1.0	D: -61.2	E: nt	F: nt
COc1ccc(OCc2n(CC(=O)OC3CC(C)CCC3C(C)C)c3ccccc3[n+]2C)cc1 (stereo not given)
  A: -24.8	B: -26.2	C: 8.1	D: 86.8*	E: 7.5	F: 3.0
COc1ccc(-c2n(CC(=O)OC3CC(C)CCC3C(C)C)c3ccccc3[n+]2C)cc1 (stereo not given)
  A: nt	B: nt	C: 0.0	D: -14.3	E: nt	F: nt
C[C@H]1CN([C@@H](C)CO)C(=O)c2cc(NC(=O)CCN3CCOCC3)ccc2O[C@H]1CN(C)Cc1ccc(-c2ccccc2)cc1
  A: -5.4[16.7 µM]	B: 5.4	C: nt	D: 23.3[16.7 µM]	E: nt	F: 2.3
O=C(NC1CCCC1)N1CCCCN2[C@H](CO)[C@@H](c3ccc(-c4cncnc4)cc3)[C@H]2C1
  A: 44.6[16.7 µM]	B: 2.2	C: nt	D: nt	E: 18.3	F: 106.4*
O=C(Nc1ccccc1)N1CCCCN2[C@H](CO)[C@@H](c3ccc(C#CC4CC4)cc3)[C@@H]2C1
  A: 16.6[16.7 µM]	B: 4.3	C: nt	D: nt	E: 41.7	F: 100.5*
CCOC(=O)C1(Cc2ccccc2)CCCN(Cc2ccccn2)C1 (stereo not given)
  A: -3.3	B: -2.3	C: 30.7*	D: -8.4	E: -10.6	F: -0.2
CCc1ccc(CN(C)Cc2c(C(=O)N3CCOCC3)nc3c(C)cccn23)nc1
  A: -2.4	B: -2.2	C: 15.8	D: 19.3	E: -9.6	F: -0.1
S=C(NC1CCCCC1)N1CCOCCOCCN(C(=S)NC2CCCCC2)CCOCCOCC1
  A: 29.3	B: -3.6	C: 10.3	D: 39.7	E: -12.4	F: -1.2
S=C(NN=C1CCCCC1=NNC(=S)N1CCOCC1)N1CCOCC1
  A: nt	B: nt	C: -11.6	D: 66.8*	E: nt	F: nt
COc1ccc(CCN2C(=O)c3[nH]nc(-c4ccccc4O)c3C2c2ccccc2)cc1OC (stereo not given)
  A: 2.5	B: -52.9	C: -15.1	D: 147.4*	E: -15.0	F: -1.5
COCCCN1C(=O)c2[nH]nc(-c3ccccc3O)c2C1c1ccc(Cl)cc1 (stereo not given)
  A: 30.4	B: -12.2	C: -4.5	D: -116.0	E: -8.1	F: 1.0
CC(C)C[C@H]1CN=C(N(C)C)N1CC1CCCCCC1
  A: 0.8	B: 4.4	C: -2.8	D: -7.2	E: -11.6	F: 0.2
O=C(Cc1ccc(Cl)cc1Cl)Nc1ccncc1Cl
  A: nt	B: nt	C: -6.6	D: nt	E: -6.9	F: -0.8
O=C(Cc1ccc(Cl)cc1Cl)Nc1ccncc1
  A: 3.6	B: nt	C: nt	D: 73.0*	E: -14.9	F: 2.6
CCOCCOC(=O)C(C)Oc1ccc(Oc2nc(Cl)ccc2Cl)cc1 (stereo not given)
  A: nt	B: 88.5*	C: -11.2	D: -7.7	E: nt	F: nt
Cc1cccc(NC(=O)CSCC(=O)Nc2ccc(S(=O)(=O)N3CCCCC3)cc2)c1
  A: -1.1	B: nt	C: -15.9	D: 6.6	E: 6.8	F: -10.3
O=C1C=C(c2ccc(F)cc2OCc2ccccc2)C[C@@H](c2ccc3c(c2)OCO3)C1
  A: 1.7	B: -0.5	C: -2.5	D: 32.4	E: -19.3	F: 1.5

Taken from above:
O=C(Cc1ccc(Cl)cc1Cl)Nc1ccncc1 in Env fusion inh has 73.0*
C[C@@H]1CN([C@@H](C)CO)S(=O)(=O)c2ccc(C#C[C@@H](C)O)cc2O[C@@H]1CN(C)C(=O)C1CCCCC1 in miR122 inh has 4.3[16.7 µM]

Only miR122 inh and Env fusion inh, for some of the entries so far:
molecule | miR122 inh | Env fusion inh
COc1ccc(S(=O)(=O)Nc2ccc(-c3ccc4nnc(C)n4n3)cc2)c(OC)c1 | 92.4* | nt
COc1ccc(OC)c(S(=O)(=O)Nc2ccc(-c3ccc4nnc(C)n4n3)cc2)c1 | nt | -61.2
